Assay results from patent US12318477B2, “Injectable and inhalable formulations” (CYBIN UK LTD, priority 2021, dated 2025).

Experiment: Stability of Example 10 formulations after storage for 3 months (related substances)
Settings: Example 10 formulation (25 mg/mL as free base, pH 6), limit of quantitation ≥0.05% w/w

SMILES: CN(C)CCc1c[nH]c2ccccc12.O=C(O)/C=C/C(=O)O [SPL026, N,N-dimethyltryptamine (DMT) fumarate salt]
- related substances (3 months storage at 2-8° C.): no related substances above the limit of quantitation
- related substances (3 months storage at 25° C./60% RH): no related substances above the limit of quantitation
- related substances (T=0): no related substances above the limit of quantitation
